Values after ≈ are worked out from the molar mass of the structure shown.
Target: mouse semaphorin 3A (Sema3A) (Mus musculus, UniProt O08665)
Assay: Suppressing action on the growth cone collapse activity of Sema3A in chick dorsal root ganglion culture
Assay type: cell-based
Details: E7 chick embryo dorsal root ganglions; compound added 1 hour before 3 units/ml mouse Sema3A; growth cone collapse rate after another 1 hour
From the text: The growth cone collapse activity of semaphorin described above means an activity to make growth cones disappear. This activity is observed after performing the following steps: cultivating nerve cells (generally tissue explants of ganglions) for a given period of time in vitro until the extended neurites as well as the growth cones at the edge of said neurites can be observed; and then adding thereto a given concentration (e.g. about 3 unit/ml; 1 unit/ml is defined as a semaphorin concentration in which 50% of the growth cones are collapsed) of semaphorin and cultivating for another given period of time (e.g. one hour). In order to get the extended neurites and the growth cones at the edge of said neurites ready for the observation, the nerve cells are generally cultivated for 10 to 20 hours in vitro, which duration can be altered according to a nerve variant and culture conditions. […]
A 96-well plate (Sumitomo Bakelite Co., Ltd.) pre-coated with polylysine was further coated with laminine (20 μg/ml of laminine, for 1 hour at room temperature). […] The cultures were then left for 15 minutes at room temperature so that the tissue sections were fixed, and collapse rates of the growth cones were microscopically determined. […]

Amino acid sequences for entries named in this document (tags omitted). Residues count along the entry.
UniProt O08665, 21-772 limits assumed: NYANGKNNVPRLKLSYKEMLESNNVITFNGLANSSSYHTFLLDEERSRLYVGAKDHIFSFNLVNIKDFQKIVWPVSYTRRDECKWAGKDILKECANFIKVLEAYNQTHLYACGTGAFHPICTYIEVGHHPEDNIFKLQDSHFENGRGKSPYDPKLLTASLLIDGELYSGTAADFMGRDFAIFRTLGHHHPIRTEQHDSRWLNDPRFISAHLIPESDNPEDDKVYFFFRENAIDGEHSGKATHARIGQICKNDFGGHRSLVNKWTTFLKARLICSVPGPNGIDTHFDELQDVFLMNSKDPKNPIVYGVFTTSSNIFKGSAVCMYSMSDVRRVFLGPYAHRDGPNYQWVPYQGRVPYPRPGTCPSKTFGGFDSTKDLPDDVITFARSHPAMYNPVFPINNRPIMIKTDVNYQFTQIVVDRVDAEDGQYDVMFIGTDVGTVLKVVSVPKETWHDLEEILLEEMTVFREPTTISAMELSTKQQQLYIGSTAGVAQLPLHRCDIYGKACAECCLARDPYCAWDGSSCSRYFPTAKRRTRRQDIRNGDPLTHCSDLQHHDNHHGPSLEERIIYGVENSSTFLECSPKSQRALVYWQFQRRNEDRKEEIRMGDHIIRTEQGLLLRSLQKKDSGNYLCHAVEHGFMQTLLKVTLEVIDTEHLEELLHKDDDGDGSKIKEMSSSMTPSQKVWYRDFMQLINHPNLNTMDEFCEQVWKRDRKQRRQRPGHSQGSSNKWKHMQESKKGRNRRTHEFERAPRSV

IC50: 4 µg/mL (≈ 7.11 µM)
Compound: Cc1cc(=O)c2c(o1)-c1c(c3c(c(O)c1C(=O)O)OC1(C)Cc4oc5cc(O)cc(C(=O)O)c5c(=O)c4C3O1)OC2 (stereo not shown)
